Data as given in PMC9924091 (Journal of Medicinal Chemistry, 2023).

System: SARS-CoV-2 virus (Victoria strain) in VeroE6 cells
Assay type: cell-based

In the case of `CSCC[C@@H](C#N)NC(=O)[C@@H]1[C@@H]2[C@H](CN1C(=O)[C@@H](NC(=O)C(F)(F)F)C(C)(C)C)C2(C)C`, the “fold more efficient inhibition of SARS-CoV-2 progression in infected VeroE6 cells than alkyne 13” value is reported as roughly 2 fold.
